Assay results as given in patent publication US9353152B2, “Induction of the mitochondrial permeability transition” (NewSouth Innovations Pty Limited, priority 2002, dated 2016).

By UniProt entry, the sequences of proteins in these tests, tags left out. Residues count along the entry.
UniProt Q09073, 2-298 limits assumed: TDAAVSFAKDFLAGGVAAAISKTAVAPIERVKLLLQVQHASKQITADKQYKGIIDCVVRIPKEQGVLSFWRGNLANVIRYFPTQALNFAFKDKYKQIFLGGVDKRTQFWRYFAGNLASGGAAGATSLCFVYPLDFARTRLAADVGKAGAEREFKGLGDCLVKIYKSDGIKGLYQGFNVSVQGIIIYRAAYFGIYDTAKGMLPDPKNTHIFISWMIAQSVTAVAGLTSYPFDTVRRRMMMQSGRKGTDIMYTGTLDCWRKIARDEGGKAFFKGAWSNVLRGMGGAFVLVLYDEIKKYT

Tests used:
BAE cells = experiment: Antiproliferative activity on BAE cells (MTT, 72 hours screen); details: for Fold Increase: IC50(GSAO)/IC50(GSAO Analogue); for IC50: read-out: IC50 (μM)*, proliferation of BAE cells, MTT, DMEM 10% FBS
MPTP = MPTP (Rattus norvegicus, UniProt Q09073); experiment: MPTP induction screening (swelling of frozen rat liver mitochondria, 520 nm); type: biochemical; details: Swelling Rate(GSAO Analogue)/Swelling Rate(GSAO)

Compound | times more active than the corresponding p-arsenoxide analogue (BAE cells; BAE proliferation, 4 vs 3, 22 vs 7, 23 vs 8) | Fold Increase (BAE cells) | IC50 (BAE cells) [µM] | MPTP Swelling Rate Increase/GSAO* Mean (MPTP)
retro-HO-Cys-(CH2CONHC6H4-p-As{OH}2)-carbonyl-Glu-OH | approximately 140 times | 9.9 | 0.84 | 5.6
O=C(CSCC(O)CO)Nc1ccc([As](O)O)cc1 (stereo not shown) | – | 1.1 | 7.6 | 1.3
